Assay results taken from ChEMBL document CHEMBL5543160, “Psychoplastogenic DYRK1A Inhibitors with Therapeutic Effects Relevant to Alzheimer's Disease” (J Med Chem, 2024).
The source made the active and inactive calls. The calls are words filed in the database; no cut-off is given here.

Amino acid sequences for entries named in this document (tags omitted). A change or cut given only in a name is not applied to a line headed by its entry.
UniProt P50613: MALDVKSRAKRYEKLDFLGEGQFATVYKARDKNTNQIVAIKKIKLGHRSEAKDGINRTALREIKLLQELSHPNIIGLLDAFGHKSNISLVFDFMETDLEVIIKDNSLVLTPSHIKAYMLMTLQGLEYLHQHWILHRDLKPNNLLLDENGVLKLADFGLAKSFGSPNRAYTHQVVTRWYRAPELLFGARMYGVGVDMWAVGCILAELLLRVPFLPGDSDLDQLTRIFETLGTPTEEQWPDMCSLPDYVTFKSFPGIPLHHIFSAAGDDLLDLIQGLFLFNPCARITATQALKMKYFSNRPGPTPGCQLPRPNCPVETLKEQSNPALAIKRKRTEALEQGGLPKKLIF
UniProt P48736: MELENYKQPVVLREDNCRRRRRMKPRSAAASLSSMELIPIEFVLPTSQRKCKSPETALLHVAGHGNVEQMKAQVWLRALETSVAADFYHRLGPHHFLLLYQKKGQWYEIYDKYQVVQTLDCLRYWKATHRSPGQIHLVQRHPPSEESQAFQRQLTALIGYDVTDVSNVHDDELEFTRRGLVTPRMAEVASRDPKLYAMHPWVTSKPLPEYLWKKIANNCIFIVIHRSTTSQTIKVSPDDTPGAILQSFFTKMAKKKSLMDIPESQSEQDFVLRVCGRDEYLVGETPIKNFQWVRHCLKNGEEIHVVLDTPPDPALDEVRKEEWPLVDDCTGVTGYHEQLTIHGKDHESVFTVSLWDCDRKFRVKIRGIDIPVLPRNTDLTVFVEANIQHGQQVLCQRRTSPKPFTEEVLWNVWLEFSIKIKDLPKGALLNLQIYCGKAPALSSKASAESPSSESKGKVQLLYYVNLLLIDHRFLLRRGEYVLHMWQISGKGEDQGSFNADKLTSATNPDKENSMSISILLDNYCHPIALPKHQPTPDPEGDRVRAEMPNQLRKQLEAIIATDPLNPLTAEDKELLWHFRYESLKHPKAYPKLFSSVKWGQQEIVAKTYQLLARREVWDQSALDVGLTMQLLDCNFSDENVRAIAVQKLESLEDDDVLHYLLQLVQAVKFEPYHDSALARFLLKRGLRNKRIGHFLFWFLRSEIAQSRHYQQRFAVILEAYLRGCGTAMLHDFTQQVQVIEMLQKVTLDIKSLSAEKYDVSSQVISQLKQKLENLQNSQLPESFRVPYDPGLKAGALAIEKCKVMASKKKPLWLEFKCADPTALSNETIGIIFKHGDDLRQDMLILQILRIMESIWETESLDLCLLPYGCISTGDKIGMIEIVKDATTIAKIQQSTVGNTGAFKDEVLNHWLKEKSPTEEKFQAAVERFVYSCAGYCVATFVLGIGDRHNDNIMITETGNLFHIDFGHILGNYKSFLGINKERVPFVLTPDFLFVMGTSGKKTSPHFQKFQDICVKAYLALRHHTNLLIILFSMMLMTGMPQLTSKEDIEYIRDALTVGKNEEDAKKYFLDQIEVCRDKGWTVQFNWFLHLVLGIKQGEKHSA

Legend:
[1] = molecular target: Cyclin-dependent kinase 7 (Homo sapiens) (UniProt P50613); assay: Inhibition of CDK7 (unknown origin) at 10 uM by DiscoverX KINOMEscan assay
[2] = molecular target: Phosphatidylinositol 4,5-bisphosphate 3-kinase catalytic subunit gamma isoform (Homo sapiens) (UniProt P48736); assay: Inhibition of PIK3CG (unknown origin) at 10 uM by DiscoverX KINOMEscan assay

In the case of `COc1ccc2c3ccnc(C)c3n(CCN(C)C)c2c1.O=C(O)/C=C/C(=O)O`, the inhibition [1] is reported as “Active” and the inhibition [2] is reported as “Active”.
